PubChem BioAssay AID588413 (Sanford-Burnham Center for Chemical Genomics, 2011)
Only a part is listed here, and it is no random draw. Calls of active or inactive are those of the source.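 Rule for the calls: active = inhibition above about 55% (limit read from the data); inactive = the rest.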

Test: blockers of Gli reporter signaling – luciferase luminescence, Sufu-KO-LIGHT cells, uHTS, primary screen (AID 588413);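 note: 0% = DMSO-treated cells and 100% = wells with medium but no cells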
Conditions: Sufu-KO-LIGHT fibroblasts, at 5 µM, active compounds read high

SMILES | inhibition
c1ccc(CN2CCC(Nc3ccccc3)CC2)cc1 | inactive: 1.78%
CCCN1CCC(Nc2cc(OC)cc(OC)c2)CC1 | inactive: -13.4%
Cc1cc(N(CCCl)CCCl)ccc1C=O | inactive: 15.1%
CN(C)C1(CNC(=O)c2cccc(C#N)c2)CCCCC1 | inactive: -13.3%
CC(C)(C)OC(=O)N1CCC(N(C(=O)c2ccccc2)c2ccc(Cl)cc2)CC1 | inactive: 19.2%
N#Cc1ccc(C(=O)NCC2(N3CCCCC3)CCCCC2)cc1 | inactive: 11.3%
CCc1cc(C(=O)NCC2(N3CCCCC3)CCCCC2)sc1C | inactive: 30.6%
O=C(OC1CN2CCC1CC2)C1c2ccccc2C=Cc2ccccc21 (stereo not given) | inactive: 4.47%
N/C(=N\O)c1c(N)no[n+]1[O-] | inactive: 7.68%
CCOC(=O)N1CCC(Nc2ccc(C)cc2)CC1 | inactive: 5.61%
COc1ccc(C(=O)NCC2(N3CCOCC3)CCCCC2)cc1OC | inactive: 22.9%
O=C(NCC1(N2CCOCC2)CCCCC1)c1cc(Br)ccc1Cl | inactive: -24.7%
COc1cc(C(=O)NCC2(N3CCOCC3)CCCCC2)cc(OC)c1C | inactive: 6.11%
CN1CCC(Nc2ccc(Cl)cc2)CC1 | inactive: 1.85%
CCC(CO)(C(=O)OC1CN2CCC1CC2)c1ccccc1 (stereo not given) | inactive: -2.98%
COc1cc(OC)cc(C(=O)NCC2(N3CCOCC3)CCCCC2)c1 | inactive: 5.27%
COc1cccc(C(=O)N(c2cc(C)cc(C)c2)C2CCN(C(=O)OC(C)(C)C)CC2)c1 | inactive: 18.7%
CCCOc1ccc(C(=O)NCC2(N(C)C)CCCCC2)cc1 | inactive: 9.11%
CC(C)(C)OC(=O)N1CCC(Nc2ccccc2)CC1 | inactive: 2.23%
O=C(O)C1(Nc2ccccc2)CCN(Cc2ccccc2)CC1 | inactive: 1.26%
CCOc1ncccc1C(=O)NCC1(N2CCOCC2)CCCCC1 | inactive: 17.9%
CN1CCC(Nc2ccc(F)c(Cl)c2)CC1 | inactive: -7.78%
O=C(NCC1(N2CCCCC2)CCCCC1)c1ccco1 | inactive: 6.01%
CN(C)c1ccc(C(=O)NCC2(N3CCCCC3)CCCCC2)cc1 | inactive: 21.6%
Cn1c(=O)[nH]cc(N(CCCl)CCCl)c1=O | inactive: 19.2%
Cc1ccccc1NC1(C#N)CCN(Cc2ccccc2)CC1 | inactive: 0.4%
CCN1CCC(Nc2cccc(F)c2)CC1 | inactive: 6.44%
Cc1ccc(NC2(C#N)CCN(Cc3ccccc3)CC2)cc1 | inactive: -2.58%
Cc1ccc(C(=O)NCC2(N3CCCCC3)CCCCC2)o1 | inactive: 8.22%
Fc1ccccc1NC1CCN(Cc2ccccc2)CC1 | inactive: 7.14%
